≈ marks a conversion by molar mass, not a printed value. Like-named read-outs stand apart in the source and are kept apart here.
Assay: Peptide solubility in PBS/H2O/DMSO
Type: physicochemical
Protocol: Peptide identity and purity are documented by mass spectrometry and high-performance liquid chromatography (HPLC). The peptide solubility values are determined. Concentrated peptide stocks are prepared in DMSO or H2O and stored frozen at −80° C.

## CC(C)C[C@H](NC(=O)[C@H](Cc1c[nH]c2ccccc12)NC(=O)[C@H](C)NC(=O)CNC(=O)[C@@H](N)CSCC(N)=O)C(=O)N[C@@H](C)C(=O)N[C@@H](Cc1ccc(O)cc1)C(=O)N1CCC[C@H]1C(=O)N[C@@H](CC(=O)O)C(=O)N[C@@H](CO)C(=O)N[C@H](C(=O)N1CCC[C@H]1C(=O)N[C@@H](Cc1ccc(O)cc1)C(=O)N[C@@H](CCCNC(=N)N)C(=O)N1CCC[C@H]1C(=O)N[C@@H](CCCCNC(=O)CCCC[C@@H]1SC[C@@H]2NC(=O)N[C@@H]21)C(=O)O)C(C)C [compound 10]
DMSO, Table 4, third of PBS/H20/DMSO, read-out: Solubility in DMSO
  solubility: 10000 µg/mL (≈ 4750 µM)
DMSO, third of PBS/H2O/DMSO, read-out: Solubility in DMSO
  solubility: 10000 µg/mL (≈ 4750 µM)
H2O, second of PBS/H2O/DMSO, read-out: Solubility in H2O
  solubility: 5000 µg/mL (≈ 2370 µM)
PBS, Table 4, first of PBS/H20/DMSO, read-out: Solubility in PBS
  solubility: < 100 µg/mL
PBS, first of PBS/H2O/DMSO, read-out: Solubility in PBS
  solubility: < 100 µg/mL
water, Table 4, second of PBS/H20/DMSO, read-out: Solubility in H20
  solubility: 5000 µg/mL (≈ 2370 µM)

Reference: patent US20230391826A1, “COMPOSITIONS AND METHODS FOR TREATING DISEASES” (Sanford Burnham Prebys Medical Discovery Institute, priority 2020, published 2023)
